Data published in patent publication US9481674B1, “Dihydropyrrolopyridine inhibitors of ROR-gamma” (Vitae Pharmaceuticals, Inc., priority 2016, dated 2016).

By UniProt entry, the sequences of proteins in these tests, tags left out. Residues count along the entry.
UniProt P51449, 269-508 limits assumed: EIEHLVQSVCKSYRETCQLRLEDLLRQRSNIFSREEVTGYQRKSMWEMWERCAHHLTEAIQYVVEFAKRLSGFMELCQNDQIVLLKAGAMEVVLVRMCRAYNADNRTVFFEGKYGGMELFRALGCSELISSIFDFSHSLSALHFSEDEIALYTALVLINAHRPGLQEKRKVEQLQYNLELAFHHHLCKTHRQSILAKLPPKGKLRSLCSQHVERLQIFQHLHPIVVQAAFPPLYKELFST

Target: T1, recombinant RORγ Ligand Binding Domain (LBD) protein (Homo sapiens, UniProt P51449)
T1 construct: 6×His; GST
Experiment: Radio-Ligand RORγ Binding Assay (Assay 1)
Conditions: cell-free competition with 25-hydroxy[26,27-3H]-cholesterol; read-out: RORγ Binding Ki Range* (nM) (Assay 1)
Experimental: Radio-Ligand RORγ Binding Assay (Assay 1)
The plate was shaken at 700 rpm for 20 min and incubated for 10 min at rt, after which 40 μL of poly-Lys YSi SPA beads (PerkinElmer, Cat. # RPNQ0010) were added to achieve 50 μg of the beads per well. The plate was incubated on an orbital shaker for 20 min and then for 10 min without agitation at rt. SPA signal for tritium beta radiation was registered on PerkinElmer Microbeta plate reader.

With `CC[C@H]1c2ncc(C(=O)N[C@@H](CO)c3ccc(S(=O)(=O)CC)cn3)cc2CN1C[C@H]1CC[C@H](C(F)(F)F)OC1` (single isomer, unassigned) [Compound 3] the Ki was < 100 nM.
